Results published in PubChem BioAssay AID720509 (The Scripps Research Institute Molecular Screening Center, 2013).
This is a selection; strong and weak results do not stand in their true shares. Calls of active or inactive are those of the source.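 How the source made its calls: active means inhibition above a per-campaign cutoff: mean of compounds within control limits plus 3 SD (cut at about 15% in these data); inactive means the rest.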

Chains of the proteins cited; added tags and fusions are not shown. Lines headed by an entry give the natural chain unless they say otherwise; changes in a name come on top.
UniProt P02675: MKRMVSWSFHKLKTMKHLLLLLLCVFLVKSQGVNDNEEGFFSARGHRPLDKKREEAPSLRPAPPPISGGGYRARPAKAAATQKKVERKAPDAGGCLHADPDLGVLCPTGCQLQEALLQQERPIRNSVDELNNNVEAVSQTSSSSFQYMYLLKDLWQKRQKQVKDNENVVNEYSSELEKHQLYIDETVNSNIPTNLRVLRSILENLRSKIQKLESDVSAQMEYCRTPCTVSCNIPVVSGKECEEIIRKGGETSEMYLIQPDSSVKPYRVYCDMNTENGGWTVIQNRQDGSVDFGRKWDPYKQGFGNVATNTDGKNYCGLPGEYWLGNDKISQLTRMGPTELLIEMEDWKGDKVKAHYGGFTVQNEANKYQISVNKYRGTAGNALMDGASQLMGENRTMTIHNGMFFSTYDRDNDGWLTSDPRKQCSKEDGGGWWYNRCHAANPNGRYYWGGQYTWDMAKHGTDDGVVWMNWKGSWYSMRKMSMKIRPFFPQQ

These compounds were tested against Fibrinogen beta chain (Homo sapiens) (UniProt P02675) (assay: small molecules displacing Tn6 from DD(E) complex – biochemical, fluorescence polarization, human fibrin, Tn6 probe, primary screen (AID 720509;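 further: 0% = median of all compound wells on the plate and 100% = blocking peptide control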)). Details: Fibrin DD(E) TRITC-Tn6 fluorescence polarization displacement; at 8.3 µM; active compounds read high.

Row | SMILES | inhibition
1 | C[N+]1=C2C=CC=CC=C2SC12C([N+](=O)[O-])=CC([N+](=O)[O-])=C[C-]2[N+](=O)[O-] (centres undefined) | inactive: -5.05%
2 | Nc1ccc([As](=O)(O)c2ccc(N)cc2)cc1 | inactive: 10.8%
3 | CCN(/C(=N/P(=O)(N1CCOCC1)N1CCOCC1)N1CCOCC1)c1ccc(OC)cc1 | inactive: -3.18%
4 | CN(C)C(=O)OCCc1n(C)cc[n+]1C | inactive: 2.82%
5 | CC(C)c1nc(Nc2ccccc2)n(P(=O)(N(C)C)N(C)C)n1 | inactive: -0.82%
6 | CC(C)=N/N=C(\N)N[N+](=O)[O-] | inactive: -4.03%
7 | CC1CCN(C(=O)Oc2c(Cl)cc(Cl)c3cccnc23)CC1 | inactive: -0.59%
8 | c1cc(-c2nn[nH]n2)ccc1-c1nn[nH]n1 | inactive: 0.24%
9 | COc1ccc(C2=NCC(CBr)S2)cc1 (centres undefined) | inactive: 6.63%
10 | O=[N+]([O-])c1cccc2n[nH]nc12 | inactive: -4.56%
11 | CC(=O)N1C2C3N(C(C)=O)C1C1N(C(C)=O)C(C(N1C(C)=O)N3C(C)=O)N2C(C)=O | inactive: -4.84%
12 | CCc1nc2c(n1)c1c(non1O)c1c2no[n+]1[O-] | inactive: 3.21%
13 | O=[N+]([O-])c1cc([N+](=O)[O-])c(CCNc2ccccc2)c([N+](=O)[O-])c1 | inactive: -8.22%
14 | Cc1ccc(NP(=O)(Oc2ccccc2)Oc2ccccc2)nc1 | inactive: 3.34%
15 | CC(C)(C)C(=O)NC(Sc1ccncn1)C(Cl)(Cl)Cl (centres undefined) | inactive: -8.82%
16 | O=[N+]([O-])c1ncn(CCn2ncnc2[N+](=O)[O-])n1 | inactive: 12.9%
17 | COC(=O)C1(C)COP(=O)(Nc2ccccc2)OC1 (centres undefined) | inactive: 2.45%
18 | O=[N+]([O-])c1cccc(NC2=NCC(CBr)S2)c1 (centres undefined) | inactive: -3.91%
19 | O=C(O)CNc1ccc([As](=O)(O)O)cc1 | inactive: -8.31%
20 | O=P1(N(CCCl)CCCl)OCCCS1 (centres undefined) | inactive: 2.27%
21 | O=C(Nc1cc([As](=O)(O)O)ccc1O)c1ccccc1 | inactive: 9.48%
22 | CCN(N=Nc1nonc1N)c1nonc1N | inactive: 4.15%

Row | SMILES | inhibition
23 | CN(C(=O)Cc1ccccc1)C1CC[C@@]2(CCCO2)C[C@@H]1N1CCCC1 (some centres undefined) | inactive: 1.07%
24 | Nc1cccc2ccc([As](=O)(O)O)cc12 | active: 21.3%
25 | CCCC1OP(N)(=O)OCC1CC (centres undefined) | inactive: 1.61%
26 | CC(=O)Nc1ccc([As](=O)(O)O)cc1 | inactive: 5.49%
27 | O=C(O)c1ccccc1[As](=O)(O)O | inactive: 9.24%
28 | O=P(Nc1nc2ccc(Cl)cc2s1)(c1ccccc1)c1ccccc1 | inactive: -7.21%
29 | CN(C)P(=O)(N(C)C)n1c(Nc2ccccc2)nnc1-c1ccccc1 | inactive: 5.93%
30 | Cc1ccc(NP(=O)(Oc2ccccc2F)Oc2ccccc2F)nc1 | inactive: -10.8%
31 | CN(C(=O)Cc1ccc(Cl)c(Cl)c1)[C@H]1CCCC[C@@H]1N1CCCC1 | inactive: -2.15%
32 | Cc1cc(SC(NC(=O)c2ccc(F)cc2)C(Cl)(Cl)Cl)ncn1 (centres undefined) | inactive: -5.15%
33 | CCOP(=O)(Nc1ccccc1)OCC | inactive: -8.87%
34 | CCn1c(=O)n(C2CCN(CC3CCCCCCC3)C[C@H]2CO)c2ccccc21 (some centres undefined) | inactive: -5.25%
35 | Nc1cc(N)c2nonc2c1[N+](=O)[O-] | inactive: 2.62%
36 | CC(C)CC(=O)NC(Sc1ccc(Cl)cc1)C(Cl)(Cl)Cl (centres undefined) | inactive: -0.58%
37 | O=C(NC(Sc1ccncn1)C(Cl)(Cl)Cl)c1ccccc1 (centres undefined) | inactive: 7.31%
38 | Oc1ccccc1CNc1ccccn1 | inactive: -0.68%
39 | NC(=O)c1cc([N+](=O)[O-])cc([N+](=O)[O-])c1N | inactive: -0.08%
40 | Cc1ccc(N/C(=N/P(=O)(N2CCOCC2)N2CCOCC2)N2CCOCC2)cc1 | inactive: 2.23%
41 | CN(C(=O)Cc1ccc(Cl)c(Cl)c1)[C@H]1CCCC[C@H]1N1CCCC1 | inactive: -7.85%
42 | Cc1ccc(OP(=O)(Nc2nccs2)Oc2ccc(C)cc2)cc1 | inactive: 2.15%
43 | COc1ccccc1OP(=O)(Nc1ccc(C)cn1)Oc1ccccc1OC | inactive: -4.54%
44 | CN1CCCC(OC(=O)C(c2ccccc2)c2ccccc2)C1 (centres undefined) | inactive: 9.68%

Row | SMILES | inhibition
45 | Clc1ccc(Cl)c(NC2=NCC(CBr)S2)c1 (centres undefined) | inactive: -0.21%
46 | COC(=O)C1(C)COP(=O)(NCc2ccccc2)OC1 (centres undefined) | inactive: 4.07%
47 | CC(=O)c1ccc(N2CC2c2ccncc2)cc1 (centres undefined) | inactive: 4.48%
48 | N#C/C(=C\c1ccc(N(CCBr)CCBr)cc1)C(N)=O | inactive: 0.02%
49 | C[C@H]1OP(=O)(Oc2ccccc2)C[C@@H]2O[C@@H]21 (some centres undefined) | inactive: 4.7%
50 | C[C@@H]1C=CCP(=O)(Oc2ccccc2)O1 (some centres undefined) | inactive: -3.13%
51 | Cc1ccccc1CN(C)C(=O)COC(=O)C(O)(c1ccccc1)c1ccccc1 | inactive: -3.59%
52 | CC(=O)Nc1ccc(Oc2c([N+](=O)[O-])cc([N+](=O)[O-])cc2[N+](=O)[O-])cc1 | inactive: 3.18%
53 | CC(=O)Nc1ccc([As](=O)(O)O)c(O)c1 | inactive: -1.62%
54 | CCOc1ccc(C2=NCC(CBr)S2)cc1 (centres undefined) | inactive: -0.06%
55 | O=P1(Nc2nc3ccc(Cl)cc3s2)COc2ccccc2O1 (centres undefined) | inactive: -1.5%
56 | CCc1cc(O)c([N+](=O)[O-])c(C)c1[N+](=O)[O-] | inactive: 10.2%
57 | CC(C)(C)C(=O)NC(Sc1ccccc1)C(Cl)(Cl)Cl (centres undefined) | inactive: -0.78%
58 | CC(=O)NC(SC(=S)N(CC(C)C)CC(C)C)C(Cl)(Cl)Cl (centres undefined) | inactive: -4.26%
59 | Cc1ccc(OP(=O)(Nc2ccccn2)Oc2ccc(C)cc2)cc1 | inactive: 6.55%
60 | COC(=O)c1cc2c(s1)N=C(c1ccccc1)N(C)P2(=O)N1CCOCC1 (centres undefined) | inactive: -7.09%
61 | CCC(=O)N1C2C3N(C(=O)CC)C1C1N(C(=O)CC)C(C(N1C(=O)CC)N3C(=O)CC)N2C(=O)CC | inactive: -4.69%
62 | O=C(OC1CN2CCC1CC2)c1ccccc1 (centres undefined) | inactive: -4.91%
63 | O=c1c2cc([N+](=O)[O-])ccc2[nH]c2c([N+](=O)[O-])cc([N+](=O)[O-])cc12 | inactive: 0.91%
64 | CN(C)C(=O)Oc1noc2ccccc12 | inactive: -7.44%
